Experimental data as given in article PMC4931022, “Arginine demethylation is catalysed by a subset of JmjC histone lysine demethylases” (Nature Communications, 2016).

Protein sequences, listed by entry. Tags and fused reporters are not part of them. Residues count along the entry.
UniProt O15054, 1141-1590 limits assumed: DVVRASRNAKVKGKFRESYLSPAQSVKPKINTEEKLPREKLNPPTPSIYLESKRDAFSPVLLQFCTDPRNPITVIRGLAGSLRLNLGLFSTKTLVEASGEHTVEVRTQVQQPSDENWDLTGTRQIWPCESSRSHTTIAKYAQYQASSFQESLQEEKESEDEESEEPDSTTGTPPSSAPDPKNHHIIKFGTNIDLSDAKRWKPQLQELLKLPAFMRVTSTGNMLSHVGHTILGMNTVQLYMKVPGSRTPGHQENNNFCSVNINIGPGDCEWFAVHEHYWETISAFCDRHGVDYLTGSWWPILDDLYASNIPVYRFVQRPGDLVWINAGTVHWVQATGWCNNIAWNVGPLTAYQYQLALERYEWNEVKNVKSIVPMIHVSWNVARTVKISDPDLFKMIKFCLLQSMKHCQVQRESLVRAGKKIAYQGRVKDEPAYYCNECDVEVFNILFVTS

Tests used:
Assay type in all cases: biochemical
KDM4E [1] = target: T1, KDM4E (Homo sapiens, UniProt B2RXH2); test: MALDI MS activity assay, recombinant KDM4E catalytic domain; design: key: + indicates demethylation activity; − indicates no activity or that below our limits of detection; details: KDM4E 2 μM, peptide 10 μM, 1 h, 37 °C, 2OG 200 μM, ascorbate 100 μM, Fe(II) 10 μM, 50 mM HEPES pH 7.5; MALDI-TOF MS, −14 Da shift
T1 construct: His6 (N); made in house; host or cells: Escherichia coli
T1 sequence (B2RXH2 1-337): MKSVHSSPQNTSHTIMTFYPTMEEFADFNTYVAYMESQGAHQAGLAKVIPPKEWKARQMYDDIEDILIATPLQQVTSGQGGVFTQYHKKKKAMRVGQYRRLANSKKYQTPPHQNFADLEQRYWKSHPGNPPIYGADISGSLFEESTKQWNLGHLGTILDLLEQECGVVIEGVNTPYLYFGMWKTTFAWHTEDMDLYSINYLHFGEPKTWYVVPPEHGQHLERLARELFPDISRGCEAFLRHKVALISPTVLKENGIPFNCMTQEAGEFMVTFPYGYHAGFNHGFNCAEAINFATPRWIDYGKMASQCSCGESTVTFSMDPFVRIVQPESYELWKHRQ
Protocol: (§1) MALDI MS activity assays. Recombinant proteins (2 μM) were incubated with peptides (10 μM, sequences are given in Supplementary Table 1) and cofactors/substrates for 1 h at 37 °C, unless otherwise specified. Reactions were quenched with 1:1 (v/v) methanol and analysed with MALDI MS. Assay conditions for each enzyme are given in Supplementary Table 2. Negative controls without enzyme were included. Note that in some cases small variations (≤2 Da) in the absolute experimentally observed values compared with the calculated values for peptides were observed. However, in all cases where demethylation is assigned the mass shift was 14 Da.
(§2) Supplementary Table 2 Assay conditions with truncated recombinant protein.
(§3) Enzyme [2OG] / µM [Ascorbate] / µM [FeII] / µM Buffer Conditions […]
(§4) Enzyme [2OG] / mM [Ascorbate] / mM [FeII] / µM Buffer Conditions

KDM5C = target: T2, KDM5C (Homo sapiens, UniProt P41229); test: MALDI MS activity assay, recombinant KDM5C catalytic domain; design: key: + indicates demethylation activity; − indicates no activity or that below our limits of detection; details: KDM5C 2 μM, peptide 10 μM, 1 h, 37 °C, 2OG 100 μM, ascorbate 100 μM, Fe(II) 10 μM, 50 mM HEPES pH 7.5; MALDI-TOF MS, −14 Da shift
T2 construct: KDM5C1–765 was produced as an N-terminally His6-tagged protein in Sf9 cells; His6 (N); made in house; host or cells: Sf9 cells (provided by the Structural Genomics Consortium)
T2 sequence (P41229 1-765): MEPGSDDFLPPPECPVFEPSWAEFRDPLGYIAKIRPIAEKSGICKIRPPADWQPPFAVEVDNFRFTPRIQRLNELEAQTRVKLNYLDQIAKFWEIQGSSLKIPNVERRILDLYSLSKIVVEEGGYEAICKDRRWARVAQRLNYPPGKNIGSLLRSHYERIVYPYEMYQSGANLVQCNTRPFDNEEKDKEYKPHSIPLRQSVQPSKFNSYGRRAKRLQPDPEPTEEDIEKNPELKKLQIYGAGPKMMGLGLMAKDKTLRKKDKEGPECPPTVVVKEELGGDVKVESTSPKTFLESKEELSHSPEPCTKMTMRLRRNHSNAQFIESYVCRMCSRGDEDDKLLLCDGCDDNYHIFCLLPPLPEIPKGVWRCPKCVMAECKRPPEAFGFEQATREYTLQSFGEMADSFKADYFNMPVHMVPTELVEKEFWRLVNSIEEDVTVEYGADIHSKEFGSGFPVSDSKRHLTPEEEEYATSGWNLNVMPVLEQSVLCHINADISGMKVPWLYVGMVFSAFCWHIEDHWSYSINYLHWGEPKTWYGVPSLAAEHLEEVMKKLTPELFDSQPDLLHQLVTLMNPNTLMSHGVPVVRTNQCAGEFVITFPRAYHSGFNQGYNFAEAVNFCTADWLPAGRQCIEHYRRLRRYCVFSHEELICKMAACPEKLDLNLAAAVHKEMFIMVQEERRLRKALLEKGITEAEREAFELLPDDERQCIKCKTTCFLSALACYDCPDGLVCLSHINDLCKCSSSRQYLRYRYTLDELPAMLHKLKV
Protocol: as §1, §2, §3, §4

KDM6B = target: T3, KDM6B (Homo sapiens, UniProt O15054); test: MALDI MS activity assay, recombinant KDM6B catalytic domain; design: key: + indicates demethylation activity; − indicates no activity or that below our limits of detection; details: KDM6B 2 μM, peptide 10 μM, 1 h, 37 °C, 2OG 100 μM, ascorbate 100 μM, Fe(II) 10 μM, 50 mM HEPES pH 7.5, 150 mM NaCl; MALDI-TOF MS, −14 Da shift
T3 construct: His6 (N); made in house; host or cells: Escherichia coli
Protocol: as §1, §2
(§5) Enzyme [2OG] / µM [Ascorbate] / µM [FeII] / µM Buffer Conditions
(§6) Supplementary Table 3 Assay conditions with full length Flag-tagged KDMs.
as §4

KDM3A [2] = target: T4, KDM3A (Homo sapiens, UniProt Q9Y4C1); test: MALDI MS activity assay, recombinant KDM3A catalytic domain; design: key: + indicates demethylation activity; − indicates no activity or that below our limits of detection; details: KDM3A 2 μM, peptide 10 μM, 1 h, 37 °C, 2OG 100 μM, ascorbate 100 μM, Fe(II) 50 μM, 50 mM HEPES pH 7.5; MALDI-TOF MS, −14 Da shift
T4 construct: KDM3A515–1,317; His6 (N); made in house; host or cells: Sf9 cells
T4 sequence (Q9Y4C1 515-1317 limits assumed): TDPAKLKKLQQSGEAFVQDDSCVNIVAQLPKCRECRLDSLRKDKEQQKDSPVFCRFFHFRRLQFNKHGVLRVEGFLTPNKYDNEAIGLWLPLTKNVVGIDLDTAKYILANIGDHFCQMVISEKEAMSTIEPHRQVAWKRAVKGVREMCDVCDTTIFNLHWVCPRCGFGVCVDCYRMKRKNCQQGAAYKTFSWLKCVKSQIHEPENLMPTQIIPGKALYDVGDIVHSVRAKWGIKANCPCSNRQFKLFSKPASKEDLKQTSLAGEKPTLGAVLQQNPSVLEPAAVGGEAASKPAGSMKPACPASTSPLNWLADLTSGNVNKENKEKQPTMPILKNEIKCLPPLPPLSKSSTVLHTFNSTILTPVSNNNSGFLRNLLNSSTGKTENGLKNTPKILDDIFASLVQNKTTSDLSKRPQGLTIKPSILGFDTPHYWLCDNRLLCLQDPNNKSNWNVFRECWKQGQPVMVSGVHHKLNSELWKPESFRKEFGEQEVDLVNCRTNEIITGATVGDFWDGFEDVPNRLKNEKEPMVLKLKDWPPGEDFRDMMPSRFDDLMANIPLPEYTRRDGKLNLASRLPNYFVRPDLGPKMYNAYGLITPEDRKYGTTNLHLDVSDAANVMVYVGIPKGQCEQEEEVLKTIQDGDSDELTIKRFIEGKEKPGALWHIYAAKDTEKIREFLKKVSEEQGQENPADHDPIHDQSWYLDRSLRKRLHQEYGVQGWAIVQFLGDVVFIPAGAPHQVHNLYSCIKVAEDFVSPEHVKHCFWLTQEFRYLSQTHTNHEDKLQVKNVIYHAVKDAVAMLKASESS
Protocol: as §1, §2, §5, §6, §4

KDM3A [3] = target: T4, KDM3A; test: Formaldehyde dehydrogenase-coupled demethylation assay, KDM3A
Protocol: (§7) Formaldehyde dehydrogenase-coupled assays. Preliminary kinetic parameters were determined by detection of the formaldehyde by-product of the demethylation reaction using a FDH (formaldehyde dehydrogenase-coupled)/NAD^+-coupled assay as previously described. Assays were carried out in buffer (enzyme-dependent) with the addition of Fe(II) ammonium sulfate (10 μM), sodium ascorbate (100 μM), 2OG (200 μM), NAD^+ (500 μM), enzyme (0.2–4 μM) and FDH enzyme (0.025 U per assay, Sigma-Aldrich; total volume 30 μl) and were conducted at 37 °C in clear-bottom black 384-well plates. Reactions were monitored over 25 min using a PHERAstar FS (BMG Labtech) plate reader with 355 nm excitation and 460 nm emission. The Km and Vmax values were calculated from the reaction rate during the linear phase of formaldehyde production, as determined by the slope of the fluorescence signal recorded.

KDM4E [4] = target: T1, KDM4E; test: Formaldehyde dehydrogenase-coupled demethylation assay, KDM4E
Protocol: as §7

[5] = calculated using data points below 100 μM, substrate inhibition observed above 100 μM, FDH-coupled assay, 37 °C, mean±s.e.m., n=3

Row | Substance | observed arginine demethylation activity (KDM4E [1]) | observed arginine demethylation activity (KDM5C) | observed arginine demethylation activity (KDM6B) | observed arginine demethylation activity (KDM3A [2]) | kcat/KM (KDM3A [3]; calculated from the average kcat and KM values, μM^−1 s^−1 for this quantity) | Km (KDM3A [3]; [5]) | kcat (KDM3A [3]; [5]) | kcat (KDM4E [4]; KDM4E catalytic domain, apparent, preliminary, FDH/NAD+-coupled assay, 37 °C, mean±s.e.m., n=3) | Km (KDM4E [4]; KDM4E catalytic domain, apparent, preliminary, FDH/NAD+-coupled formaldehyde assay, 37 °C, 2OG 200 μM, Fe(II) 10 μM, ascorbate 100 μM, mean±s.e.m., n=3) | kcat/KM (KDM4E [4]; KDM4E, calculated from the average kcat and KM values, μM^−1 s^−1 for this quantity)
1 | ARTKQTA-Rme2a-KSTGGKA [H3 (1–15) R8me2a, 'natural' histone H3 peptide asymmetrically dimethylated at R8] | + | + | − | − |  |  |  |  |  | 
2 | ARTKQTA-Rme2s-KSTGGKA [H3 (1–15) R8me2s, 'natural' histone H3 peptide symmetrically dimethylated at R8] | + | + | − | − |  |  |  |  |  | 
3 | ARTKQTA-Rme-KSTGGKA [H3 (1–15) R8me, 'natural' histone H3 peptide monomethylated at R8] | + | − | − | − |  |  |  |  |  | 
4 | ARTKQTAR-Kme2-STGGKA [H3(1-15)K9me2, recognized histone H3 N-methylated-lysine peptide substrate for KDM3A, reference compound] |  |  |  |  | 7,978.0 × 10^−6 | 44.5 ± 4.8 µM | 355±95.3 × 10^−3 s^−1 |  |  | 
5 | ARTKQTAR-Kme3-STGGKA [H3(1-15)K9me3, recognized histone H3 N-methylated-lysine peptide substrate for KDM4A/E, reference compound] |  |  |  |  |  |  |  | 170.7±15.2 × 10^−3 s^−1 | 17.8 ± 4 µM | 9,575 × 10^−6
